In ChEMBL document CHEMBL1149230, “Long chain amines and long chain ammonium salts as novel inhibitors of dynamin GTPase activity” (Bioorg Med Chem Lett, 2004):

Target: T1, Dynamin-1 (Homo sapiens, UniProt Q05193)
T1 sequence (Q05193 whole entry): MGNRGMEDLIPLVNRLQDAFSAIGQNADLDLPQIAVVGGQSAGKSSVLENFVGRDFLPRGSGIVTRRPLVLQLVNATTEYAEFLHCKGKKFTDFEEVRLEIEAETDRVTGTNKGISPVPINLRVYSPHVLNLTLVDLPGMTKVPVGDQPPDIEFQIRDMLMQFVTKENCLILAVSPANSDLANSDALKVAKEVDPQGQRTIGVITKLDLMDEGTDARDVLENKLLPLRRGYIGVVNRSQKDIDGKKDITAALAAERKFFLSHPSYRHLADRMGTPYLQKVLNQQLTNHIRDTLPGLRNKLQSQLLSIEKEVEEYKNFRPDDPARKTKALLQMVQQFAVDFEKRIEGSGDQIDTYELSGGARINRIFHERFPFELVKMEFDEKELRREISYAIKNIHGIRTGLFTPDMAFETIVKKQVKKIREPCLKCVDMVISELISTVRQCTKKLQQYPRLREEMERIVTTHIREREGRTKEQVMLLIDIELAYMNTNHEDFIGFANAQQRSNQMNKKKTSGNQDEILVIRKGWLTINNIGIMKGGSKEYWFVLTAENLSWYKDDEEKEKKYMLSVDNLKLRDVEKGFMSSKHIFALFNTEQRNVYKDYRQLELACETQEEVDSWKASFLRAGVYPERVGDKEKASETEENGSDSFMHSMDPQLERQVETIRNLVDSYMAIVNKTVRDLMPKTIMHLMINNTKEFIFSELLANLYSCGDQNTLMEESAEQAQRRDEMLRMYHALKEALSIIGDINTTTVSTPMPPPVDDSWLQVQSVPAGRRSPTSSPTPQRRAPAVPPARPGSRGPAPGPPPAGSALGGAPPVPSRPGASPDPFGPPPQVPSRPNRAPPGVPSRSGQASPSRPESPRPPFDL
Assay: Concentration required against dynamin-1 GTPase activity of sheep brain.
Design: species or system Ovis aries

- IC50: 5.79 µM
Sequence: CETRIMIDE
